Data taken from PMC10261046, “Mechanism of small molecule inhibition of Plasmodium falciparum myosin A informs antimalarial drug design” (Nature Communications, 2023).

How the values were obtained:
[1] = biological target: PfMyoA (full length Plasmodium falciparum myosin A heavy chain WT with bound light chains PfELC and PfMTIP) (Plasmodium falciparum) (UniProt Q8IDR3)
[2] = biological target: PfMyoA (full length Plasmodium falciparum myosin A heavy chain WT with bound light chains PfELC and PfMTIP) (Plasmodium falciparum) (UniProt Q8IDR3); remark: listed apart in the source
[3] = biological target: PfMyoA (full length Plasmodium falciparum myosin A heavy chain WT with bound light chains PfELC and PfMTIP) (Plasmodium falciparum) (UniProt Q8IDR3); test: count of fluorescent actin filaments on surface-immobilized myosin (in vitro motility assay); as a1 but in the presence of KNX-002 (200 µM in the results, 100 µM in the methods)
[4] = biological target: PfMyoA (full length Plasmodium falciparum myosin A heavy chain WT with bound light chains PfELC and PfMTIP) (Plasmodium falciparum) (UniProt Q8IDR3); test: count of fluorescent actin filaments on surface-immobilized myosin (in vitro motility assay); PfMyoA on a neutravidin / biotinylated BSA surface, rhodamine-phalloidin actin applied; 25 mM imidazole pH 7.5, 150 mM KCl, 4 mM MgCl2, 1 mM EGTA, 10 mM DTT, 0.15% methylcellulose, 2 mM MgATP, 1% DMSO; without KNX-002

Q: What does the source list for “Skeletal muscle actin (chicken), filaments (from UniProt P68139 1-377) (natural protein)”?
A: in vitro motility assay: speed of actin filaments moved by surface-bound PfMyoA, in the absence of KNX-002 [1]: 3.33 µm/s; actin-activated ATPase of PfMyoA (5 nM PfMyoA, 50 µM skeletal actin, 30 °C), in the absence of inhibitor [2]: 84.2 s⁻¹; actin-activated ATPase of PfMyoA (5 nM PfMyoA, 50 µM skeletal actin, 30 °C), in the presence of 100 µM KNX-002 [2]: 9.6 s⁻¹; actin filaments bound per field (with KNX-002) (filaments/field) [3]: 6.5; actin filaments bound per field (filaments/field) [4]: 110
